{"source": "patent EP4821921A1", "about": "“NITRIFICATION INHIBITOR AND USE THEREOF IN FERTILISERS CONTAINING AMMONIACAL NITROGEN, UREA NITROGEN OR BOTH” (dated 2026)", "key": {"soil": {"system": "soil", "test": "in vivo inhibition test in soils (soil incubation with ammonium sulphate, nitrate formation)", "procedure": "To analyse the nitrification inhibition activity of pulcherriminic acid in soil, an incubation test was carried out at different doses of nitrogen per hectare and with different inhibitor doses. Three different doses of nitrogen in the form of ammonium sulphate were applied to the same soil type, equivalent to: 100, 200 and 300 kg N/ha. For each dose of nitrogen, different doses of pulcherriminic acid were applied as a nitrification inhibitor, as well as the following controls: nitrogen-free control, nitrogen control and nitrogen controls in the presence of a commercial inhibitor (dicyandiamide). Inhibitor percentages relate to grammes of inhibitor per 100 g of added nitrogen. […] Table 3. Results of the in vivo inhibition test in soils"}, "[1]": {"system": "Nitrosomonas europaea bacteria", "test": "in vitro nitrification inhibition assay (pH of the medium)", "procedure": "To investigate the nitrification inhibitory capacity of pulcherriminic acid in in vitro tests with Nitrosomonas europaea bacteria, the pH generated 24 and 48 hours after the application of pulcherriminic acid is measured. The generation of nitric acid by the Nitrosomonas europaea bacteria through the nitrification process causes a decrease in pH, so if the pH is maintained it means that nitrification is not taking place or that the nitrification process is inhibited.\nThe same is observed when pulcherriminic acid is added at a dose of 5.9 ppm. Therefore, pulcherriminic acid inhibits the nitrifying activity of Nitrosomonas europaea bacteria at a concentration of 5.9 ppm in in vitro inhibition assays. Table 1. Results of the in vitro pulcherriminic acid inhibition assay on Nitrosomonas europaea\nIn addition, similar to this in vitro assay, the inhibition capacity of the nitrification process of the pulcherriminic acid precursor, in other words, L-leucine-derived cyclic dipeptide (3), was analysed. […] Table 2. Results of the in vitro inhibition test of L-leucine-derived cyclic dipeptide in Nitrosomonas europaea"}, "[2]": {"system": "Nitrosomonas europea bacteria", "details": "in vitro conditions; cited from earlier work"}, "Nitrosospira": {"system": "Nitrosospira", "details": "grasslands with animal urine as NH4^+ substrate; cited from earlier work"}, "[3]": {"details": "cited from earlier work"}, "[4]": {"details": "100 kgN/ha, inhibitor 5 %, day 0"}, "[5]": {"details": "100 kgN/ha, inhibitor 5 %, day 5"}, "[6]": {"details": "200 kgN/ha, inhibitor 5 %, day 0"}, "[7]": {"details": "200 kgN/ha, inhibitor 5 %, day 5"}, "[8]": {"details": "300 kgN/ha, inhibitor 5 %, day 0"}, "[9]": {"details": "300 kgN/ha, inhibitor 5 %, day 5"}}, "data": [{"smiles": "CC(C)Cc1c(O)[n+]([O-])c(CC(C)C)c(O)[n+]1[O-]", "values": [{"measurement": "nitrification process", "setting": "soil; 10 % pulcherriminic acid applied, after 5 days", "value": "totally inhibited"}, {"measurement": "mg NO3^- / kg dry soil", "setting": "soil; 100 kgN/ha, inhibitor 2.5 % (g per 100 g added nitrogen), day 0", "value": 3.82, "unit": "mg NO3^- / kg dry soil"}, {"measurement": "mg NO3^- / kg dry soil", "setting": "soil; 100 kgN/ha, inhibitor 2.5 %, day 5", "value": 23.81, "unit": "mg NO3^- / kg dry soil"}, {"measurement": "mg NO3^- / kg dry soil", "setting": "soil; [4]", "value": 2.88, "unit": "mg NO3^- / kg dry soil"}, {"measurement": "mg NO3^- / kg dry soil", "setting": "soil; [5]", "value": 23.13, "unit": "mg NO3^- / kg dry soil"}, {"measurement": "mg NO3^- / kg dry soil", "setting": "soil; 100 kgN/ha, inhibitor 10 %, day 0", "value": 3.26, "unit": "mg NO3^- / kg dry soil"}, {"measurement": "mg NO3^- / kg dry soil", "setting": "soil; 100 kgN/ha, inhibitor 10 %, day 5", "value": 18.07, "unit": "mg NO3^- / kg dry soil"}, {"measurement": "inhibitory capacity compared with dicyandiamide", "setting": "soil; 200 and 300 kg N/ha, same inhibitor dose", "value": "equal to the inhibitory capacity of dicyandiamide"}, {"measurement": "mg NO3^- / kg dry soil", "setting": "soil; 200 kgN/ha, inhibitor 2.5 %, day 0", "value": 3.38, "unit": "mg NO3^- / kg dry soil"}, {"measurement": "mg NO3^- / kg dry soil", "setting": "soil; 200 kgN/ha, inhibitor 2.5 %, day 5", "value": 29.83, "unit": "mg NO3^- / kg dry soil"}, {"measurement": "mg NO3^- / kg dry soil", "setting": "soil; [6]", "value": 3.30, "unit": "mg NO3^- / kg dry soil"}, {"measurement": "mg NO3^- / kg dry soil", "setting": "soil; [7]", "value": 25.46, "unit": "mg NO3^- / kg dry soil"}, {"measurement": "mg NO3^- / kg dry soil", "setting": "soil; 200 kgN/ha, inhibitor 10 %, day 0", "value": 4.24, "unit": "mg NO3^- / kg dry soil"}, {"measurement": "mg NO3^- / kg dry soil", "setting": "soil; 200 kgN/ha, inhibitor 10 %, day 5", "value": 1.22, "unit": "mg NO3^- / kg dry soil"}, {"measurement": "mg NO3^- / kg dry soil", "setting": "soil; 300 kgN/ha, inhibitor 2.5 %, day 0", "value": 3.61, "unit": "mg NO3^- / kg dry soil"}, {"measurement": "mg NO3^- / kg dry soil", "setting": "soil; 300 kgN/ha, inhibitor 2.5 %, day 5", "value": 31.18, "unit": "mg NO3^- / kg dry soil"}, {"measurement": "mg NO3^- / kg dry soil", "setting": "soil; [8]", "value": 3.02, "unit": "mg NO3^- / kg dry soil"}, {"measurement": "mg NO3^- / kg dry soil", "setting": "soil; [9]", "value": 17.42, "unit": "mg NO3^- / kg dry soil"}, {"measurement": "mg NO3^- / kg dry soil", "setting": "soil; 300 kgN/ha, inhibitor 10 %, day 0", "value": 3.08, "unit": "mg NO3^- / kg dry soil"}, {"measurement": "mg NO3^- / kg dry soil", "setting": "soil; 300 kgN/ha, inhibitor 10 %, day 5", "value": 5.98, "unit": "mg NO3^- / kg dry soil"}, {"measurement": "nitrate formation compared to the nitrogen control", "setting": "soil; at most nitrogen doses, after 5 days", "value": "reduces nitrate formation"}, {"measurement": "pH", "setting": "[1]; 5.9 ppm, Point 0 (t = 0)", "value": 7.91}, {"measurement": "pH", "setting": "[1]; 5.9 ppm, Point 1 (t = 24 h)", "value": 7.97}, {"measurement": "pH", "setting": "[1]; 5.9 ppm, Point 2 (t = 48 h)", "value": 7.85}, {"measurement": "pH of the medium after 48 hours relative to that measured at the initial time", "setting": "[1]; 11.8 ppm", "value": "does not decrease"}, {"measurement": "pH", "setting": "[1]; 11.8 ppm, Point 0 (t = 0)", "value": 7.88}, {"measurement": "pH", "setting": "[1]; 11.8 ppm, Point 1 (t = 24 h)", "value": 7.99}, {"measurement": "pH", "setting": "[1]; 11.8 ppm, Point 2 (t = 48 h)", "value": 8.05}, {"measurement": "nitrifying activity of Nitrosomonas europaea bacteria", "setting": "[1]; at a concentration of 5.9 ppm, in vitro inhibition assays", "value": "inhibits"}]}, {"smiles": "CC(C)C[C@@H]1NC(=O)[C@H](CC(C)C)NC1=O", "note": "(racemic)", "values": [{"measurement": "pH", "setting": "[1]; 100 ppm, Point 0 (t = 0)", "value": 7.46}, {"measurement": "pH", "setting": "[1]; 100 ppm, Point 1 (t = 24h)", "value": 5.87}, {"measurement": "pH", "setting": "[1]; 100 ppm, Point 2 (t = 48h)", "value": 5.73}, {"measurement": "pH", "setting": "[1]; 200 ppm, Point 0 (t = 0)", "value": 7.52}, {"measurement": "pH", "setting": "[1]; 200 ppm, Point 1 (t = 24h)", "value": 5.99}, {"measurement": "pH", "setting": "[1]; 200 ppm, Point 2 (t = 48h)", "value": 5.79}, {"measurement": "pH", "setting": "[1]; 1,000 ppm, Point 0 (t = 0)", "value": 7.46}, {"measurement": "pH", "setting": "[1]; 1,000 ppm, Point 1 (t = 24h)", "value": 6.42}, {"measurement": "pH", "setting": "[1]; 1,000 ppm, Point 2 (t = 48h)", "value": 5.86}, {"measurement": "pH", "setting": "[1]; 2,000 ppm, Point 0 (t = 0)", "value": 7.51}, {"measurement": "pH", "setting": "[1]; 2,000 ppm, Point 1 (t = 24h)", "value": 6.80}, {"measurement": "pH", "setting": "[1]; 2,000 ppm, Point 2 (t = 48h)", "value": 6.03}, {"measurement": "nitrifying activity of Nitrosomonas europaea bacteria", "setting": "[1]; even at 2,000 ppm", "value": "does not inhibit"}]}, {"smiles": "N#CNC(=N)N", "values": [{"measurement": "concentrations at which the production of NO2^- can be significantly reduced", "setting": "[2]", "value": "200-300 ppm"}, {"measurement": "mg NO3^- / kg dry soil", "setting": "soil; [4]", "value": 3.87, "unit": "mg NO3^- / kg dry soil"}, {"measurement": "mg NO3^- / kg dry soil", "setting": "soil; [5]", "value": 19.41, "unit": "mg NO3^- / kg dry soil"}, {"measurement": "mg NO3^- / kg dry soil", "setting": "soil; [6]", "value": 3.78, "unit": "mg NO3^- / kg dry soil"}, {"measurement": "mg NO3^- / kg dry soil", "setting": "soil; [7]", "value": 19.00, "unit": "mg NO3^- / kg dry soil"}, {"measurement": "mg NO3^- / kg dry soil", "setting": "soil; [8]", "value": 6.99, "unit": "mg NO3^- / kg dry soil"}, {"measurement": "mg NO3^- / kg dry soil", "setting": "soil; [9]", "value": 17.73, "unit": "mg NO3^- / kg dry soil"}, {"measurement": "dose effective in inhibiting Nitrosospira activity", "setting": "Nitrosospira", "value": "8 mg of DCD per kg of soil"}]}, {"smiles": "Clc1cccc(C(Cl)(Cl)Cl)n1", "values": [{"measurement": "solubility in water", "setting": "[3]", "value": "insoluble in water"}]}]}
